The target in experiment [1] is T1, rat NaP2b (SLC34A2) (Rattus norvegicus, UniProt Q9JJ09). Nature of the experiment: Inhibition of NaP2b-mediated Pi (33P) uptake in transfected HEK293 cells, rat NaP2b. As to conditions: 33P Pi uptake, 0.1 mM phosphate, value given as pIC50 range.
The target in another experiment is human NaP2b (SLC34A2) (Homo sapiens, UniProt O95436). In words: Inhibition of NaP2b-mediated Pi (33P) uptake in transfected HEK293 cells, human NaP2b. As to conditions: 33P Pi uptake, 0.1 mM phosphate, value given as pIC50 range.
For experiment [2], the target named is T1, rat NaP2b (SLC34A2). Nature of the experiment: NaP2b-mediated Pi transport (33P uptake) in transfected HEK293 cells, rat NaP2b. The conditions noted are these: Structure (V) examples.
Experiment [3] has as its system uptake of phosphate from the intestine. In words: In vivo assay: bolus phosphorus (phosphate) challenge. As to conditions: Structure (V) examples, Table 4, rat, oral 30 mg/kg.

Protein sequences, listed by entry. Tags and fused reporters are not part of them.
UniProt Q9JJ09, whole entry: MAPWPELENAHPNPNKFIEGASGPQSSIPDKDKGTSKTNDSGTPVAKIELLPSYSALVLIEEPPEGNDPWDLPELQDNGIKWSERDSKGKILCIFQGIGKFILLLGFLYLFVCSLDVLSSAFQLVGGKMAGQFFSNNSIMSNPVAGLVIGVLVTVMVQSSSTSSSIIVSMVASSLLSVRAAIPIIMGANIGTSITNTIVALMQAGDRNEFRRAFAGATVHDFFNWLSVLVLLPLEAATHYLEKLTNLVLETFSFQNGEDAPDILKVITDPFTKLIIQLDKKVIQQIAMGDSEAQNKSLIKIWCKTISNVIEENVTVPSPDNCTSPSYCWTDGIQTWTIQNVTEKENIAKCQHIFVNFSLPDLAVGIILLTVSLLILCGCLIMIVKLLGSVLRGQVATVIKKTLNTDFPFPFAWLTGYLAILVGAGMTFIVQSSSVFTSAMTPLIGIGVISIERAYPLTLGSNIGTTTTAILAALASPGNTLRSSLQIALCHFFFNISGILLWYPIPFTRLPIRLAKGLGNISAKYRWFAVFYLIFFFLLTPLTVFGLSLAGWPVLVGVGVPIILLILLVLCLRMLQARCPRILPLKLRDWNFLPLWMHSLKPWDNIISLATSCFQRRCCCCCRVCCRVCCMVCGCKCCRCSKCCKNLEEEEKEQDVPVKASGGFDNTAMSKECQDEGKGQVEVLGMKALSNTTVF
UniProt O95436, whole entry: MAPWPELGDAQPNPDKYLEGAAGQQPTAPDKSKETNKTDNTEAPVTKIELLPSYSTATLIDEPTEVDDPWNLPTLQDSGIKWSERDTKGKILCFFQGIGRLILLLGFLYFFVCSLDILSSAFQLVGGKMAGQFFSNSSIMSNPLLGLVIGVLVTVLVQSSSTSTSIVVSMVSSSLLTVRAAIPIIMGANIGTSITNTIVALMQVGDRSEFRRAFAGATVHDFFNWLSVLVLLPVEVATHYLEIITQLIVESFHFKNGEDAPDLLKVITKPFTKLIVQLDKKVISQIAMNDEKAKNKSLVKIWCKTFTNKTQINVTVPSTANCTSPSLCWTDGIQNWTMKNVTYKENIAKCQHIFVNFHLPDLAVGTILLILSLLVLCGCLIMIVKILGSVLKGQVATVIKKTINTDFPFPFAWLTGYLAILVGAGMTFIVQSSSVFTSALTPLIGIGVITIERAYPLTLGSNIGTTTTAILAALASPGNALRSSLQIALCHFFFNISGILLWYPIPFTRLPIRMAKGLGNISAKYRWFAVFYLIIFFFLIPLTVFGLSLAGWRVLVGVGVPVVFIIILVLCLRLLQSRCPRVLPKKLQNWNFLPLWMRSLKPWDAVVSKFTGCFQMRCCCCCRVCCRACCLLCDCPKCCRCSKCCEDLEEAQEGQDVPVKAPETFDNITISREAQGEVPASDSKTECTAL

Each structure is given as a SMILES string.

These results are taken from US20140023611A1 (priority 2010, published 2014).

With `O=C(O)CCSCc1cccc(C(=O)Nc2ccc(N3CCCCC3)cc2-c2cc(C(=O)NCc3ccccc3)ccn2)c1`, at rat NaP2b (SLC34A2) [1], the “pIC50 range for rat Nap2b” value is given as 5.1-6.0.

On to `CCN(CC)c1ccc(NC(=O)c2cccc(CCCOCCOCCOCCOCCNC(=O)c3ccc(CCCOCCOCCOCCOCCC(=O)O)cc3)c2)c(-c2cc(C(=O)NCc3cccc(C(F)(F)F)c3)ccn2)c1`, for which, on rat NaP2b (SLC34A2) [1], the “pIC50 range for rat Nap2b” value is recorded as 5.1-6.0. Besides, the “pIC50 range for human NaP2b” value on human NaP2b (SLC34A2) is 5.1-6.0.

Take `O=C(Nc1ccc(N2CCCCC2)cc1C(=O)N/N=C/c1ccc(Cl)c(C(F)(F)F)c1)c1cccc(Cn2cc(CCO)cn2)c1`: the “pIC50 Range” value at rat NaP2b (SLC34A2) [2] (Table 2) is reported as 6.1-7.0. The “% Decrease in serum [Pi]” value in experiment [3] was 24%. For the same molecule, the “Serum increase [Pi] mg/dL from baseline low PI state” value in experiment [3] (mean ± SD, vehicle 5.0 ± 1.3) was 3.8 ± 0.7 mg/dL.

Regarding `O=C(Nc1ccc(N2CCCCC2)cc1C(=O)N/N=C/c1ccc(Cl)c(C(F)(F)F)c1)c1cccc(Cn2cc[n+](CCO)c2)c1`, the “pIC50 Range” value on rat NaP2b (SLC34A2) [2] (Table 2, tested form: bromide) is recorded as 5.1-6.0.

In the case of `CCN(CC)c1ccc(NC(=O)c2cccc(CCCOCCOCCOCCOCCNS(=O)(=O)c3ccc(O)c(C(=O)O)c3)c2)c(-c2cc(C(=O)N[C@H]3CCCc4ccccc43)ccn2)c1`, the “pIC50 range for rat Nap2b” value at rat NaP2b (SLC34A2) [1] is reported as 5.1-6.0.
